Test results taken from patent publication US11753418B2, “Compounds for the modulation of Myc activity” (Syros Pharmaceuticals, Inc., priority 2015, dated 2023).

Sequences of proteins named here, by UniProt entry; tags and fusion partners are left off.
UniProt P01106, whole entry: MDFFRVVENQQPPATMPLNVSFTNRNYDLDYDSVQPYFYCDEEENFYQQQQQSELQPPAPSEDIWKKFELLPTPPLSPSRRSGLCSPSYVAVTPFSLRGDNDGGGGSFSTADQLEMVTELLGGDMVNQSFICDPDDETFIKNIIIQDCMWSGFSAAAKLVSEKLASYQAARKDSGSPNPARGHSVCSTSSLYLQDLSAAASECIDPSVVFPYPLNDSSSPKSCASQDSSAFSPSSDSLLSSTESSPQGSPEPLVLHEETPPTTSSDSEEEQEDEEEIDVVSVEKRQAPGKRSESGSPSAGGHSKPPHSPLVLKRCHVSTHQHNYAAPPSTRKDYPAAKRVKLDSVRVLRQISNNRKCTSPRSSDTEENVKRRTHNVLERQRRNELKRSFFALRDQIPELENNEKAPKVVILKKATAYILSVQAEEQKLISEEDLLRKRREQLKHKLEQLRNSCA

Target: c-Myc/Max/Ebox DNA (Homo sapiens, UniProt P01106)
Assay: c-Myc/Max/Ebox DNA AlphaScreen Assay
Details: read-out: Myc/Max/DNA Activity, free c-Myc 20 nM, his6-Max 5 nM, biotinylated Ebox oligo 10 nM, 2 hour incubation

Compound: O=C(CCN1CC2CCC(C1)N2)Nc1sc2c(c1-c1nc3cnccc3s1)CCNC2
- pIC50: 5.30 to 6.30

pIC50: −log10 of the molar value.
